Experimental data from PubChem BioAssay AID2129 (The Scripps Research Institute Molecular Screening Center, 2009).
Only a part is listed here, and it is no random draw. Activity calls are given as the source filed them.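 The calls were made as follows: active = inhibition above the mean of all tested compounds plus 3 SD, cutoff set per campaign (cut at about 30% in these data); inactive = the rest.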

Sequences of proteins named here, by UniProt entry; tags and fusion partners are left off.
UniProt Q07817, whole entry: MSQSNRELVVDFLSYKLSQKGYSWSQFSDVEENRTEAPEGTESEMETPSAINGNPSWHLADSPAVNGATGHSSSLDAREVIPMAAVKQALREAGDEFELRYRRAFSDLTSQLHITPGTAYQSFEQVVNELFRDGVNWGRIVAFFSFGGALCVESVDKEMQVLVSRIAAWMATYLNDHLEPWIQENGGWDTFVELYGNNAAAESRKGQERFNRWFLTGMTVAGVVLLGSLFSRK

target: Bcl-2-like protein 1 (Homo sapiens) (UniProt Q07817); assay: inhibitors of human Bcl-xL, primary screen, biochemical, fluorescence polarization, HTS (AID 2129); conditions: GST-Bcl-xL / FITC-Bim BH3 peptide fluorescence polarization; at 10.9 µM; stronger effect = higher value;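 also: 0% = DMSO wells and 100% = unlabeled Bim-BH3 peptide competitor; inhibitors lower millipolarization by displacing the labeled peptide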

| SMILES | inhibition |
| --- | --- |
| CCc1ccc(OP(C)(=O)O)cc1 | inactive: 5.96% |
| O=C(NC(Sc1ccncn1)C(Cl)(Cl)Cl)c1ccccc1 (configuration not stated) | inactive: 10.8% |
